Key:
OATP1B1 = OATP1B1 (Homo sapiens, UniProt Q9Y6L6); assay: Uptake into stable transfected OATP1B1 HEK 293 cells; type: cell-based; conditions: for Uptake into OATP1B1-HEK 293 cells: 40 min incubation, relative to RC1 (Gd-EOB-DTPA); for Inhibition Rifampicine: uptake into OATP1B1-HEK 293 cells
Procedure: (§1) Cryopreserved cells were shortly thawed in water bath and diluted in 10 mL warm culture medium (37° C.). After medium change the cells were grown for 3d in a 25 cm^2 cell culture flask. After 3 to 5d the cells were transferred into 75 cm^2 flasks. […] All test items were prepared in transport buffer at a final concentration of 100 M from stock solutions (180 to 500 mM concentration). The OATP1B1 HEK 293 cells were incubated with test solutions (test item in transport buffer 500 L) for 40 min on a thermoshaker without shaking (PHMP, Fa. Grant Bio). Triplicates were performed for each test item. After incubation the cells were washed with 2 mL of cold PBS (+) buffer (Dulbeccos PBS+, Fa. Gibco). […] As a reference standard Gd-EOB-DTPA (gadoxetate) is used in the same well plate.

Chains of the proteins cited; added tags and fusions are not shown. Lines headed by an entry give the natural chain unless they say otherwise; changes in a name come on top.
UniProt Q9Y6L6: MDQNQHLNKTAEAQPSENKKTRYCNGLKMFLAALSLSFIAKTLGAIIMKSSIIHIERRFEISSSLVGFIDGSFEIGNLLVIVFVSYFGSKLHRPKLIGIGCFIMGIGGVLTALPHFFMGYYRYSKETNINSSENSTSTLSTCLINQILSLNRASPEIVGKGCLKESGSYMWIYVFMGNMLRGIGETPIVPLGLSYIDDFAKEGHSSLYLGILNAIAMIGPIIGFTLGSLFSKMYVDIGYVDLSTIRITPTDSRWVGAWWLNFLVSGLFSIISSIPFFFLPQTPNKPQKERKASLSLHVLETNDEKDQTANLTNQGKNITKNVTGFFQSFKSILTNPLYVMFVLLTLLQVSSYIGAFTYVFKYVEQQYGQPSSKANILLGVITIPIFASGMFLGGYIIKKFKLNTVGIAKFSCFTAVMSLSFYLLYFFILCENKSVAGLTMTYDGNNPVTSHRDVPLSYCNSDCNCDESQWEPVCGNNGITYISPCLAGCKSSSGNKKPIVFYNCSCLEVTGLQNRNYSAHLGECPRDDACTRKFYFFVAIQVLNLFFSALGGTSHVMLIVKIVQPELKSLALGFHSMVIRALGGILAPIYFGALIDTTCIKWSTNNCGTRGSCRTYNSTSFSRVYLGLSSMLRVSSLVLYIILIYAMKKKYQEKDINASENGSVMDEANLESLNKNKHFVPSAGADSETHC
UniProt Q9NPD5: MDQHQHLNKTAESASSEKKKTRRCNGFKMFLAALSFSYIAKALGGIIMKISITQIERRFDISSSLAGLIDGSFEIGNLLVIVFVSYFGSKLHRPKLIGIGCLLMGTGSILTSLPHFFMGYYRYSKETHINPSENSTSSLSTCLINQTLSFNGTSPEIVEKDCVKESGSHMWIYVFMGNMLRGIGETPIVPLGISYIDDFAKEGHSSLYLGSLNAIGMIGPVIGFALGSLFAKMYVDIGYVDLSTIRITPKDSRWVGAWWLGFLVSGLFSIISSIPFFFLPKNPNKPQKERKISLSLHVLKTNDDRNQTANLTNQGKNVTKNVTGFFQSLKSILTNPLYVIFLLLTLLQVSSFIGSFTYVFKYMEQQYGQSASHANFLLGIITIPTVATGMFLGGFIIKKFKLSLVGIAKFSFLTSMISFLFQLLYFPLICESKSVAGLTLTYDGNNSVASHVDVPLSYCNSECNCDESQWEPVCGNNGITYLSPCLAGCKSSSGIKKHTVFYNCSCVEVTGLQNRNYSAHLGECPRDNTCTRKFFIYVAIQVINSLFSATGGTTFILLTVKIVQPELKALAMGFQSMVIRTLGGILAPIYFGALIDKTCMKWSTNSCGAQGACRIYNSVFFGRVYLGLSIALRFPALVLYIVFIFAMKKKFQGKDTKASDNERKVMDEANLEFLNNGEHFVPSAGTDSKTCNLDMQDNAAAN

OATP1B3 = OATP1B3 (Homo sapiens, UniProt Q9NPD5); assay: Uptake into stable transfected OATP1B3 HEK 293 cells; type: cell-based; conditions: for Uptake into OATP1B3-HEK 293 cells: 40 min incubation, relative to RC1 (Gd-EOB-DTPA); for Inhibition Rifampicine: uptake into OATP1B3-HEK 293 cells
Procedure: as §1, with “100 µM” for “100 M”, “The OATP1B3” for “The OATP1B1”, “500 μL)” for “500 L)”

## CCOCCOCCOc1ccc(CC(C(=O)O)N2CCN(CC(=O)[O-])CCN(C(C)C(=O)[O-])CCN(CC(=O)[O-])CC2)cc1.[Gd+3] (single isomer, unassigned) [Example 5, gadolinium 2-[7-(1-carboxy-2-{4-[2-(2-ethoxyethoxy)ethoxy]phenyl}ethyl)-4,10-bis(carboxylatomethyl)-1,4,7,10-tetraazacyclododecan-1-yl]propanoate]
OATP1B1
  Uptake into OATP1B1-HEK 293 cells: 79 % of RC1
  Inhibition Rifampicine: 50 % inhibition

## CCOCCOCCOc1ccc(CC(C(=O)O)N2CCN(CC(=O)[O-])CCN(C(C)C(=O)[O-])CCN(CC(=O)[O-])CC2)cc1.[Gd+3] (single isomer, unassigned) [Example 6, gadolinium 2-[7-(1-carboxy-2-{4-[2-(2-ethoxyethoxy)ethoxy]phenyl}ethyl)-4,10-bis(carboxylatomethyl)-1,4,7,10-tetraazacyclododecan-1-yl]propanoate]
OATP1B1
  Uptake into OATP1B1-HEK 293 cells: 121 % of RC1
  Inhibition Rifampicine: 66 % inhibition

## CCOCCOCCOc1ccc(CC(C(=O)O)N2CCN(CC(=O)[O-])CCN(CC(=O)[O-])CCN(CC(=O)[O-])CC2)nc1.[Gd+3] (centres unmarked) [Example 23, gadolinium 2,2′,2″-{10-[1-carboxy-2-{5-[2-(2-ethoxyethoxy)ethoxy]pyridin-2-yl}ethyl]-1,4,7,10-tetraazacyclododecane-1,4,7-triyl}triacetate]
OATP1B1
  Uptake into OATP1B1-HEK 293 cells: 46 % of RC1
OATP1B3
  Uptake into OATP1B3-HEK 293 cells: 14 % of RC1

## CCOCCOCCOc1ccc(CC(C(=O)O)N2CCN(C(CCO)C(=O)[O-])CCN(C(CCO)C(=O)[O-])CCN(C(CCO)C(=O)[O-])CC2)cc1.[Gd+3] (centres unmarked) [Example 37, gadolinium-2,2′-{4-[1-carboxy-2-{4-[2-(2-ethoxyethoxy)ethoxy]phenyl}ethyl]-10-[1-carboxylato-3-hydroxypropyl]-1,4,7,10-tetraazacyclododecane-1,7-diyl}bis(4-hydroxybutanoate)]
OATP1B1
  Uptake into OATP1B1-HEK 293 cells: 1558 % of RC1
  Inhibition Rifampicine: 13 % inhibition
OATP1B3
  Uptake into OATP1B3-HEK 293 cells: 123 % of RC1
  Inhibition Rifampicine: 44 % inhibition

## CCOCCOCCOCCOc1ccc(C[C@@H](C(=O)O)N2CCN(CC(=O)[O-])CCN(CC(=O)[O-])CCN(CC(=O)[O-])CC2)c(OCCOCCOCCOCC)c1.[Gd+3] [Example 40, gadolinium 2,2′,2″-{10-[(1S)-2-(2,4-bis {2-[2-(2-ethoxyethoxy)ethoxy]ethoxy}phenyl)-1-carboxyethyl]-1,4,7,10-tetraazacyclododecane-1,4,7-triyl}triacetate]
OATP1B1
  Uptake into OATP1B1-HEK 293 cells: 107 % of RC1
  Inhibition Rifampicine: 22 % inhibition
OATP1B3
  Uptake into OATP1B3-HEK 293 cells: 27 % of RC1
  Inhibition Rifampicine: 92 % inhibition
